One molecule from patent EP1029297B1 can be followed below.

Amino acid sequences for entries named in this document (tags omitted).
UniProt O70528, whole entry: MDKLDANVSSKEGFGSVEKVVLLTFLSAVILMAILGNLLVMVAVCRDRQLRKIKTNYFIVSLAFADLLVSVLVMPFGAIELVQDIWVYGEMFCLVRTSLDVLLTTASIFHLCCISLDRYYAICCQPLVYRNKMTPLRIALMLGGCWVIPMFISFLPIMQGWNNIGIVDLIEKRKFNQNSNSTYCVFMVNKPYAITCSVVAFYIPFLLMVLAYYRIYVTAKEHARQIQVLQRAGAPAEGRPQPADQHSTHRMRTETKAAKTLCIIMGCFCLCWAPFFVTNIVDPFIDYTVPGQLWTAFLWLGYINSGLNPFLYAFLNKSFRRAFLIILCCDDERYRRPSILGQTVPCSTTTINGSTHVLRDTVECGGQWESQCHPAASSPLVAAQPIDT

The structures appear in SMILES notation.

The target of the experiment is 5HT4 receptor (Cavia porcellus, UniProt O70528). The experiment can be described thus: screening on the 5HT4 receptor target to determine binding ability. An excerpt: According to another example, analogs to the serotonine activity on the 5-HT4 receptor (ability of compounds to inhibit 5-HT4 induced contractions of guinea-pig ileum preparations) have been retrieved according to the general-diversity scoring function of the invention. More specifically, the application of the present method to the generation of analogs of a lead compound active against 5HT4 receptors has been tested.
These compounds have been screened on the 5HT4 receptor target to determine their binding ability, and thus verify the predictability of the present method. […]

In general, IC50 refers to the midpoint of a concentration-inhibition curve. With `O=C(OCCN1CCCCC1)c1c[nH]c2ccccc12`, the “% INH (10 µM)” value (10 µM) was 104%. Moreover, where the note is “read-out: IC50 (NM), class symbol, affinity in the nanomolar range”, the IC50 was 1 to 1000 nM.
